# Apparent affinities of Ab-14 variants for a coronavirus HR2 peptide

All variants were tested on one target, the spike HR2 peptide PDVDLGDISGINAS (SARS-CoV-2).

Parent: Ab-14, a human scFv built as VH, a 15-residue (Gly4Ser)3 linker, VL. Only the CDRs of the light chain vary.
VH: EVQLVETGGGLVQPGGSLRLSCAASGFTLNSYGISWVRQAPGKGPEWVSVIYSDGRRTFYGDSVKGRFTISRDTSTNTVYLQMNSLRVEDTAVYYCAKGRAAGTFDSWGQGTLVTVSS
VL: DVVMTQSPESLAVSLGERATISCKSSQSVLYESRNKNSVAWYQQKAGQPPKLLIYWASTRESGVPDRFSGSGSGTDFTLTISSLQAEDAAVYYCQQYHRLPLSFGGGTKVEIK

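The starting antibody came from a phage panning campaign against this peptide. In library AAYL50, one, two or three CDR residues were substituted; doubles and triples were drawn at random. AlphaSeq pools MATa yeast showing the antibodies with MATalpha yeast showing the peptide. Binding brings cells together so that they mate, and sequencing counts the barcode pairs among the diploids. A regression on co-assayed BCL2-family reference pairs converts the normalised counts of each replicate to an apparent Kd. Mating was done three times.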

Positions count from residue 1 of the parent VL; V29F puts F in place of V.
Scale: log10 of Kd in nM, estimated from mating counts; low values are strong binders.
A mean of the replicates is given; it leaves out those without a signal.
A pair that was not seen in that replicate is written "ND"; this usually means weak binding, but a binder can also be missed.
Empty control strains, which show no peptide, gave a signal in 18% of pairings with library AAYL50; the median was 4.19 and 95% of these signals were weaker than 2.99. No background was subtracted. For each scFv, signals with the empty controls are counted beside the result, with their mean in brackets.

changes	log10 Kd, replicates	log10 Kd (nM), mean	empty controls
V29F/N37W	1.70 / 1.61 / 1.88	1.73	0 of 9
V29E/Q96L	2.48 / 2.05 / 1.90	2.14	1 of 9 (3.26)
S26L/K36W/T59L	1.30 / 1.39 / 1.23	1.31	5 of 9 (4.83)
S33L/A57M/Q95D	ND / ND / ND	ND	0 of 9
S25P/S33W/P101S	3.25 / 2.00 / 2.92	2.73	3 of 9 (3.78)
K36E/S38V/L100W	4.25 / ND / 4.62	4.43	4 of 9 (4.84)
N37Q/T59Y/R60T	ND / ND / 4.86	4.86	3 of 9 (4.12)
S26Y/S33G/Q95P	1.67 / 1.90 / 1.64	1.74	4 of 9 (3.88)
A40Y/R99A/S103H	ND / ND / ND	ND	2 of 9 (4.06)
V39C/A57R/Y97S	ND / ND / ND	ND	0 of 9
N37M/S38P/Q95C	4.52 / ND / ND	4.52	2 of 9 (4.32)
K36H/T59A/R60S	1.97 / 1.94 / 1.79	1.90	0 of 9
L30W/N35F/S38A	ND / ND / ND	ND	0 of 9
K36D/A57P/S103H	2.94 / 2.29 / ND	2.62	0 of 9
S38W	ND / ND / ND	ND	2 of 9 (4.70)
Q27C/R34S/V39T	ND / ND / 4.06	4.06	2 of 9 (3.71)
Y31G/T59R/Y97T	ND / ND / ND	ND	0 of 9
T59Q/E61L/Q96P	1.09 / 0.92 / 0.92	0.98	0 of 9
E32Y/K36P/Q95P	ND / ND / ND	ND	1 of 9 (4.02)
N37A/S58A/T59M	3.20 / 3.48 / 4.30	3.66	4 of 9 (3.86)
K24C/S26C/R60G	ND / ND / ND	ND	1 of 9 (3.86)
S33R/V39G/W56R	ND / 3.96 / ND	3.96	0 of 9
N35F/W56G	0.16 / 0.22 / -0.01	0.13	1 of 9 (3.03)
E32N/R34I/S58P	ND / ND / ND	ND	1 of 9 (3.41)
S25I/V29T/S38F	0.05 / 0.40 / 0.25	0.24	0 of 9
E32S/A57V/L100R	ND / ND / ND	ND	1 of 9 (3.10)
S26F/S33K/R60D	4.64 / ND / 4.92	4.78	6 of 9 (4.08)
S28W/S33E/Q95W	ND / ND / ND	ND	0 of 9
Y31L/S33N/K36H	0.50 / 0.75 / 0.76	0.67	0 of 9
S33K/A40L/A57V	ND / 4.44 / 3.99	4.22	6 of 9 (4.53)
Y31C/S33V	ND / ND / ND	ND	0 of 9
S33V/S58C/Q96C	ND / 4.36 / ND	4.36	3 of 9 (3.78)
A40I/W56A/L100F	4.12 / ND / 3.68	3.90	4 of 9 (4.92)
S33D/V39N/P101S	5.74 / ND / ND	5.74	4 of 9 (4.22)
Q27I/Y31K/E61R	ND / ND / ND	ND	0 of 9
A57S/L100P/P101H	ND / 5.02 / 5.54	5.28	5 of 9 (4.15)
S33W/N35P/R60C	3.74 / ND / ND	3.74	0 of 9
S38E/W56C/P101N	ND / ND / 2.86	2.86	1 of 9 (2.42)
N37A/S58K/R99Y	ND / ND / ND	ND	2 of 9 (4.04)
Q27T/E32W/S38N	1.07 / 1.08 / 1.15	1.10	2 of 9 (2.88)
S26F/E32D/L102C	0.82 / 1.04 / 0.97	0.94	2 of 9 (5.40)
S28V/V29P/A57C	6.35 / 3.98 / ND	5.16	0 of 9
Y31V/K36Y/N37Y	ND / ND / ND	ND	1 of 9 (4.32)
W56Y/R60L/H98S	0.65 / 0.84 / 0.81	0.77	4 of 9 (5.12)
K24T/Q27H/S62V	1.04 / 1.17 / 1.35	1.19	1 of 9 (3.94)
K24P/Q27G/Y31R	ND / 2.25 / ND	2.25	1 of 9 (4.20)
S28Q/S62A/Q95D	3.68 / ND / ND	3.68	2 of 9 (3.48)
L30R/S62T/L102V	1.93 / 1.94 / 1.86	1.91	3 of 9 (3.44)

The first 3 entries again:

| changes | log10 Kd, replicates | log10 Kd (nM), mean | empty controls |
|---|---|---|---|
| V29F/N37W | 1.70 / 1.61 / 1.88 | 1.73 | 0 of 9 |
| V29E/Q96L | 2.48 / 2.05 / 1.90 | 2.14 | 1 of 9 (3.26) |
| S26L/K36W/T59L | 1.30 / 1.39 / 1.23 | 1.31 | 5 of 9 (4.83) |

Reference: Engelhart et al. 2022, doi:10.1038/s41597-022-01779-4. File: FLAb, binding data.